Results taken from patent US20020061557A1, “Glycoprotein hormone receptor molecules” (Genentech, Inc., priority 1989, published 2002).

Amino acid sequences for entries named in this document (tags omitted). Residues count along the entry.
UniProt P16235, 27-700: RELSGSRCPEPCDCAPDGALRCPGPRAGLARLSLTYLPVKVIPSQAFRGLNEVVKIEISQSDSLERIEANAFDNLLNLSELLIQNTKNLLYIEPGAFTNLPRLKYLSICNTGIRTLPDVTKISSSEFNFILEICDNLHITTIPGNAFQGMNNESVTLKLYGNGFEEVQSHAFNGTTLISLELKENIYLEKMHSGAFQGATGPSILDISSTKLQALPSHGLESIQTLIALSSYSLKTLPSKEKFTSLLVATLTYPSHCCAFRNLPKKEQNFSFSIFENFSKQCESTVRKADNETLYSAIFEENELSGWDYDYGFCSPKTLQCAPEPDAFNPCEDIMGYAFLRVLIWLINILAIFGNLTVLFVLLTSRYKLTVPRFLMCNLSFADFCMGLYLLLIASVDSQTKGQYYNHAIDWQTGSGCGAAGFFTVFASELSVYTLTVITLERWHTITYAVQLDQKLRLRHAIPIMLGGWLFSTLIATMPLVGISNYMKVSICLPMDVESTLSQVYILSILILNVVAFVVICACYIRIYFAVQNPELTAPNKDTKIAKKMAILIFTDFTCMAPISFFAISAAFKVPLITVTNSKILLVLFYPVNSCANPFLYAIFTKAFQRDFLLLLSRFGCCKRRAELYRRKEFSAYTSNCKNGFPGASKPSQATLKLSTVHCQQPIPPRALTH

Experiments:
[1] = biological target: T1, LH/CG receptor (Rattus norvegicus, UniProt P16235); assay: CG-stimulated cAMP production in 293 cells transiently transfected with LH/CG receptor cDNA (pCLHR); format: cell-based; settings: for stimulation of cAMP production via the expressed LH/CG receptor: transfected 293 cells
T1 construct: introducing the entire coding region of the cloned cDNA and additional flanking regions contained on an Eco R1 fragment; expressed in transfected cells; host or cells: human kidney 293 cells (ATCC CRL1573), transient transfection with pCLHR
Description: (§1) Exponentially growing 293 cells were transiently transfected (C. Chen et al., Mol. Cell. Biol. 7:2745 (1987)) with PCLHR. 42h after transfection, intact cells were assayed for ^125I-CG binding (FIG. 4A) or CG-stimulated CAMP production (FIG. 4B).
For the determination of CG-stimulated CAMP production (FIG. 4B), each dish was washed 4 times with 3 ml warm Waymouth MB752/1 medium containing 1 mg/ml bovine serum albumin and placed in 2 ml of the same containing 0.5 mM 3-isobutyl-1-methylxanthine. After a 15 min preincubation at 37° C., aliquots of highly purified CG were added and the incubation was continued for 30 min at 37° C. After removing the assay media, the cells were collected in 1.5 ml cold 1 N perchloric acid containing 1 mg/ml theophylline. Cells were lysed by rapid freezing and thawing and then centrifuged. The supernatants were neutralized and then assayed for CAMP as previously described (D. L. Segaloff et al., J. Biol. Chem. 256:11420 (1981)).

[2] = biological target: T2, FSH-R (Rattus norvegicus, UniProt P20395); assay: Hormone-stimulated cAMP production in 293 cells transiently transfected with pCFSH-R; format: cell-based; settings: for cAMP: hormone 25 nM, 30 min of hormonal stimulation, FSH-R expressing 293 cells
T2 construct: introducing the entire coding region of the cloned cDNA contained on an EcoRi-Bam HI fragment; expressed in transfected cells; host or cells: human embryonic kidney 293 cells (ATCC CRL 1573), transient transfection with pCFSH-R
T2 sequence (P20395 18-692): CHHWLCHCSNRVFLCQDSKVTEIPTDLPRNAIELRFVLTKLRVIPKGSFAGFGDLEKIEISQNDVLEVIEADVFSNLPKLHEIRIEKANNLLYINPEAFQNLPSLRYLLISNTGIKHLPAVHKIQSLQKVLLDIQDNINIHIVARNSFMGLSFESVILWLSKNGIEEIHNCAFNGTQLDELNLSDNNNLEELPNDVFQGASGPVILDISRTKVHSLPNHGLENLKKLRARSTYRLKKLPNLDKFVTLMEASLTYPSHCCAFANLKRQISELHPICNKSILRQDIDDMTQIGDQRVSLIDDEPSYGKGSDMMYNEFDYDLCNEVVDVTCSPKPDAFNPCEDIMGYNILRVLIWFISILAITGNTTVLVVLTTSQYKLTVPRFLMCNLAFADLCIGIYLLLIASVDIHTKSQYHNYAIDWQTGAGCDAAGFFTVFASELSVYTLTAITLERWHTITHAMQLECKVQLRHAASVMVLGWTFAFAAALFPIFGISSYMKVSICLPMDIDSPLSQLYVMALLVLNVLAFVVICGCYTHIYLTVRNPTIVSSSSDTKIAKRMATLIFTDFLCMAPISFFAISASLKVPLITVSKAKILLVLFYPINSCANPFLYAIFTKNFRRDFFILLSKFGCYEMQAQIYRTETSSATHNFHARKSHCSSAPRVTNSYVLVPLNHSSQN
Description: The expression vector pCFSH-R was constructed by introducing the entire coding region of the cloned cDNA contained on an EcoRi-Bam HI fragment (nucleotides—77 to 2095) into the PCIS vector (C. M. Gorman et al., Virology, 171:377-385 (1989)). Exponentially growing human embryonic kidney cells 293 (ATCC CRL 1573) in 34 mm dishes were transfected with this expression vector (C. Chen and H. Okayama, Mol. Cell. Biol., 7:2745-2751 (1987)). After 42 hr intact cells were assayed for hormone-stimulated CAMP production. Each dish was washed once with 3 ml of warm DMEM medium containing 10% fetal calf serum and placed in 1 ml of the serum-free DMEM-medium buffered with 25 mM HEPES pH 7.4 containing 0.1 mM 34sobutyl-1-methylxanthine. After a 15-minute incubation period at 37° C., highly purified glycoprotein hormone (OFSH, hTSH, or hCG) was added and the incubation was continued for 30 min at 37° C. The assay was stopped by rapid freezing and thawing of the cells in liquid nitrogen and then 1.2 ml cold ethanol was added to each dish. The cell debris and precipitated protein were removed by centrifugation (10 min; 13,000×g) and 5 μl or 50 μL of the supernatant was assayed for CAMP using an Amersham kit.

[3] = biological target: T1, LH/CG receptor; assay: ^125I-CG binding to intact 293 cells transiently transfected with LH/CG receptor cDNA (pCLHR); settings: for hormone binding to the expressed LH/CG receptor: transfected 293 cells
Description: as §1
For the assay of ^125I-CG binding (FIG. 4A), each dish was washed 4 times with 3 ml of warm Waymouth MB75211 medium lacking sodium bicarbonate and containing 20 mM Hepes and 1 mg/ml bovine serum albumin and then placed in 2 ml of the same. After 2 hours at 4° C., aliquots of highly purified CG (CR-123, 12,780 IU/mg) iodinated as described by I.-C. Kim et al. (J. Biol. Chem. 261:3807 (1986)) were added alone or together with 50 IU crude CG (for the determination of non-specific binding). After 24 hours at 4° C., the binding media and cells were transferred to plastic tubes on ice. The cells were centrifuged, washed once with 2 ml cold 150 mM NaCl, 20 mM Hepes containing 1 mg/ml bovine serum albumin, and centrifuged. Cell pellets were counted in a gamma counter.

| stimulation of cAMP production via the expressed LH/CG receptor [1] | EC50 ([1]; transfected human kidney 293 cells, read-out: EC50 of CG for increased cAMP production) | cAMP response in FSH-R expressing cells ([2]; concentrations up to 25 nM) | cAMP [2] | hormone binding to the expressed LH/CG receptor [3] | Kd ([3]; transfected human kidney 293 cells, intact cells) | Substance |
| --- | --- | --- | --- | --- | --- | --- |
| not | – | – | – | not | – | hFSH: follicle stimulating hormone (hFSH), glycoprotein hormone |
| not | – | – | 12.0 pmoles/10^6 cells | not | – | hTSH: highly purified thyroid stimulating hormone (NIDDK-hTSH-1-6; 17 IU/mg) |

| Substance | stimulation of cAMP production via the expressed LH/CG receptor [1] | EC50 ([1]; transfected human kidney 293 cells, read-out: EC50 of CG for increased cAMP production) | cAMP response in FSH-R expressing cells ([2]; concentrations up to 25 nM) | cAMP [2] | hormone binding to the expressed LH/CG receptor [3] | Kd ([3]; transfected human kidney 293 cells, intact cells) |
| --- | --- | --- | --- | --- | --- | --- |
| CG: highly purified human choriogonadotropin (CR-123, 12,780 IU/mg), glycoprotein hormone | stimulate CAMP production; also recorded: concentration-dependent and saturable increase in intracellular CAMP | 0.04 to 0.08 nM | did not evoke a CAMP response | 7.6 pmoles/10^6 cells | bind with high affinity | – |
| ^125I-CG: highly purified CG (CR-123) iodinated with 125I, radioligand [reference compound] | – | – | – | – | specifically bound hormone in a concentration-dependent and saturable manner | 0.08 to 0.16 nM |

Entries after “also recorded” stand apart in the source; their conditions may differ.
